What was measured:
[1] = system: bilirubin oxidase (BOD), coated BOD 1 (Reference Example)
Experimental: (§1) The solution was homogeneously added to the above acryloylated BOD solution, and the resulting solution was allowed to react for 60 minutes.
(§2) The Michaelis constants (KM) and the reaction rate constants (kcat) of coated BOD 1, coated BOD 2, and free BOD 1 prepared above were measured under the conditions shown in Table 1 below. […] The amount of protein of each BOD sample was determined by bicinchoninic acid (BCA) colorimetric protein assay from a calibration curve of bovine serum albumin (BSA) used as a standard protein.

[2] = system: bilirubin oxidase (BOD), coated BOD 2 (Reference Example)
Experimental: as §1, §2

[3] = system: bilirubin oxidase (BOD), free BOD 1 (not coated, stored at 4° C.); conditions: pH 7.0, 25° C., oxygen saturation
Experimental: As a control, BOD on which coating was not performed and which was stored at 4° C. for the same period of time as that is necessary for the process of preparing coated BOD 2 (hereinafter referred to as “free BOD 1”) was used.
as §2

[4] = system: bilirubin oxidase (BOD), coated BOD 3 (Example 1, coated at 4° C.)
Experimental: (§3) First, 40 mg of BOD and 1 mg of ethylenediaminetetraacetic acid (EDTA) used as a stabilizer were dissolved in 3.8 mL of a 100 mM boric acid solution (pH 9.3). Subsequently, 6.0 mg of N-acryloxysuccinimide was dissolved in 0.2 mL of DMSO, and the solution was then gradually added to the boric acid buffer. The resulting solution was allowed to react at 4° C. for 10 hours. Subsequently, the resulting acryloylated BOD in which acryloyl groups were introduced was purified using a Sephadex G25 column at 4° C.
(§4) Subsequently, at 4° C., a mixture prepared by mixing acrylamide and N,N′-methylenebisacrylamide in a molar ratio of 10:1 was dissolved in 0.5 mL of deionized water free of oxygen. The solution was homogeneously added to the above acryloylated BOD solution, and the resulting solution was allowed to react for 60 minutes. The reaction was further performed in the presence of nitrogen at 4° C. for 60 minutes. Finally, the coated BOD (hereinafter referred to as “coated BOD 3”) was purified using a Sephadex G75 column.
(§5) The Michaelis constants (KM) and the reaction rate constants (kcat) of coated BOD 3, coated BOD 4, free BOD 2, and free BOD 3 prepared above were measured under the conditions shown in Table 4. […] The amount of protein of each BOD sample was determined by BCA colorimetric protein assay from a calibration curve of BSA used as a standard protein.

[5] = system: bilirubin oxidase (BOD), coated BOD 4 (Example 1, coated at 4° C.)
Experimental: as §3, §4, §5

[6] = system: bilirubin oxidase (BOD), free BOD 2 (not coated, stored at 25° C.); conditions: oxygen saturation
Experimental: (§6) As controls, BOD on which coating was not performed and which was stored at 25° C. for the same period of time as that is necessary for the process of preparing coated BOD 4 (hereinafter referred to as “free BOD 2”), and BOD on which coating was not performed and which was stored at 4° C. for the same period of time as that is necessary for the process of preparing coated BOD 4 (hereinafter referred to as “free BOD 3”) were used.
as §5

[7] = system: bilirubin oxidase (BOD), free BOD 3 (not coated, stored at 4° C.); conditions: pH 7.0, 25° C., oxygen saturation
Experimental: as §6, §5

reaction rate constant (kcat) relative to free BOD 1 ([1]; coated BOD 1 vs free BOD 1): about 1/23
reaction rate constant (kcat) relative to free BOD 1 ([2]; coated BOD 2 vs free BOD 1): about 1/122
reaction rate constant (kcat) relative to free BOD 2 ([4]; coated BOD 3 vs free BOD 2): about ⅓
reaction rate constant (kcat) relative to free BOD 3 ([4]; coated BOD 3 vs free BOD 3): about ¼
reaction rate constant (kcat) relative to free BOD 2 ([5]; coated BOD 4 vs free BOD 2): about ⅓
reaction rate constant (kcat) relative to free BOD 3 ([5]; coated BOD 4 vs free BOD 3): about ¼
Km ([6]; read-out: KM,ABTS, free BOD 2, 0.603 nM, ABTS 0.05 to 7 mM, pH 7.0 sodium phosphate, 25° C., 730 nm): 337 µM
SMILES: CCn1c(=NN=c2sc3cc(S(=O)(=O)O)ccc3n2CC)sc2cc(S(=O)(=O)O)ccc21.N.N [ABTS, 2,2′-Azino-bis(3-ethylbenzothiazoline-6-sulfonic acid) diammonium salt]
kcat/KM,ABTS ([1]; coated BOD 1, pH 7.0, 25° C., oxygen saturation): 0.27 M^−1s^−1 × 10^5
kcat/KM,ABTS ([2]; coated BOD 2, pH 7.0, 25° C., oxygen saturation): 0.048 M^−1s^−1 × 10^5
kcat/KM,ABTS [3]: 7.6 M^−1s^−1 × 10^5
kcat/KM,ABTS ([4]; coated BOD 3, pH 7.0, 25° C., oxygen saturation): 0.92 M^−1s^−1 × 10^5
kcat/KM,ABTS ([5]; coated BOD 4, pH 7.0, 25° C., oxygen saturation): 0.79 M^−1s^−1 × 10^5
kcat/KM,ABTS ([6]; free BOD 2, pH 7.0, 25° C.): 4.7 M^−1s^−1 × 10^5
kcat/KM,ABTS [7]: 6.0 M^−1s^−1 × 10^5

Reference: patent US20090053582A1, “METHOD OF COATING BILIRUBIN OXIDASE” (SONY CORPORATION, priority 2007, published 2009)
